Test [1] addresses Bcl isoforms. The test is described as follows: Binding affinity for the Bcl isoforms. To be noted: Bcl-xL, Bcl-2, Bcl-w.
The test system of test [2] is senescent fibroblasts (SnCs), IMR90 cells. The test is described as follows: Senolytic activity: killing senescent (irradiated) IMR90 fibroblasts, CellTiter-Glo. To be noted: read-out: Best SnCs EC50; killing senescent (irradiated) fibroblasts in culture.

Consider one compound from patent US20200338094A1, “Use of a Heterocyclic Bcl-xL Inhibitor and Related Analogs for Removing Senescent Cells in the Treatment of Eye Diseases and Other Age-Related Conditions” (Unity Biotechnology, Inc., priority 2015, published 2020).

For `Cc1c(S(C)(=O)=O)c(-c2cc(F)cc(N3CCN(c4ccc(NS(=O)(=O)c5ccc(N[C@H](CCN6CCC(C(=O)OCCCP(=O)(O)O)CC6)CSc6ccccc6)c(S(=O)(=O)C(F)(F)F)c5)cc4)CC3)c2)c(-c2ccc(Cl)cc2)n1C(C)C`, the “binding affinities (Ki) for the Bcl isoforms, in words” value in test [1] was “nanomole to picomole range”. For the same compound, the EC50 in test [2] came to 6 µM.
